One assay addresses Bcl-xL (Homo sapiens (Human), UniProt Q07817). In words: Fluorescence polarization competitive binding assay, Bcl-xL. Particulars: FP competition with Flu-BAK probe; read-out: Inhibitory activity IC50 Bcl-xL. (In fluorescence polarisation assays a small probe gives low polarisation when free and higher when bound to something large.)
For the next assay, the target named is Bcl-2 (Homo sapiens (Human), UniProt P10415). Nature of the assay: Fluorescence polarization competitive binding assay, Bcl-2. To be noted: FP competition with Flu-BIM probe; read-out: Inhibitory activity IC50 Bcl-2.

Sequences of proteins named here, by UniProt entry; tags and fusion partners are left off.
UniProt Q07817, whole entry: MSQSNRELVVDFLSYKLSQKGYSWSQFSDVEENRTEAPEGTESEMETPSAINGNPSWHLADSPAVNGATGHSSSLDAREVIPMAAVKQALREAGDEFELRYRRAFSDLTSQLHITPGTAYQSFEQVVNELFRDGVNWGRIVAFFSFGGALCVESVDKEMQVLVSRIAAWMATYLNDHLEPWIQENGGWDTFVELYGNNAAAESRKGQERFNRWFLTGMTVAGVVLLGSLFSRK
UniProt P10415, whole entry: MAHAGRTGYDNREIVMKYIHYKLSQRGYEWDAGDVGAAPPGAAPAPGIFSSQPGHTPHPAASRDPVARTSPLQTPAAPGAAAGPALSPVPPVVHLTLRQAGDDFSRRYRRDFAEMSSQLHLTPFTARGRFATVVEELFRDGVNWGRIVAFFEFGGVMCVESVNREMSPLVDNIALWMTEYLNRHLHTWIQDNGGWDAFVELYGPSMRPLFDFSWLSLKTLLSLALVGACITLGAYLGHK

The term IC50 denotes the concentration needed to halve the response being measured.

Take “2-((1H-pyrrolo[2,3-b]pyridin-5-yl)oxy)-4-(1-((6- (4-chlorophenyl)-2-oxaspiro[3.5]non-6-en-7- yl)methyl)-1,2,3,6-tetrahydropyridin-4-yl)-N-((3- nitro-4-(((tetrahydro-2H-pyran-4- yl)methyl)amino)phenyl)sulfonyl)benzamide [compound 9]”: the IC50 was determined as 20.6 nM at Bcl-xL and 1.9 nM at Bcl-2.

With “(R)-N-((4-(((1,4-dioxan-2-yl)methyl)amino)-3- nitrophenyl)sulfonyl)-2-((1H-pyrrolo[2,3- b]pyridin-5-yl)oxy)-4-(1-((6-(4-chlorophenyl)-2- oxaspiro[3.5]non-6-en-7-yl)methyl)-1,2,3,6- tetrahydropyridin-4-yl)benzamide [Cpd. No. 5]”, on Bcl-2, the IC50 is 2.1 nM.

(Values after patent US11718613B2.)
